Tested on: estrogen-dependent cell proliferation

Structure (SMILES) | cellular antiestrogenic potency
CN(C)CCOc1ccc(/C(=C(/CCCl)c2ccccc2)c2ccccc2)cc1 [toremifene, Toremifene] | comparable cellular antiestrogenic potency
OCCOc1ccc(/C(=C(/CCCl)c2ccccc2)c2ccccc2)cc1 [ospemifine, Ospemifene] | comparable cellular antiestrogenic potency
